Laboratory results from patent US8486981B2, “Selective ligands for the dopamine 3 (D3) receptor and methods of using the same” (The Regents of the University of Michigan, priority 2011, dated 2013).

Amino acid sequences for entries named in this document (tags omitted).
UniProt P19020, whole entry: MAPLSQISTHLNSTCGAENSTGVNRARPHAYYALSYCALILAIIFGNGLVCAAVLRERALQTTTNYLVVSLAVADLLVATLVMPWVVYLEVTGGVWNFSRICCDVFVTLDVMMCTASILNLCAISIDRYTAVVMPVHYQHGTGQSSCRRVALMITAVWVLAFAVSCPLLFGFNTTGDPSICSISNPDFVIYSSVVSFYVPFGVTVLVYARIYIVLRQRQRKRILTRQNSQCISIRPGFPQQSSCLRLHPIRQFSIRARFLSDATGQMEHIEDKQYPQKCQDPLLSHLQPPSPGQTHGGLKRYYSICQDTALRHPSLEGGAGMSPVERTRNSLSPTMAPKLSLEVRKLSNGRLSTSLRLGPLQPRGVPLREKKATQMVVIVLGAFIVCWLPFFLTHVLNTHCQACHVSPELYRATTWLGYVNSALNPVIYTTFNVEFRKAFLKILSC

Biological target: D3 receptor (Rattus norvegicus, UniProt P19020)
Assay: Induction of yawning behavior in rats
Assay type: in vivo

- Activity in in vivo functional assays in rats: only active at very high doses
Compound: CCCN(CC[C@H]1CC[C@H](NC(=O)/C=C/c2ccccc2)CC1)[C@H]1CCc2nc(N)sc2C1
